Assay results as given in US9988341B2, “Bacterial topoisomerase inhibitors and use thereof” (THE FLORIDA INTERNATIONAL UNIVERSITY BOARD OF TRUSTEES, priority 2016, dated 2018).

Key:
[1] = tested on: HEK; test: HEK toxicity
[2] = tested on: M. smegmatis mc2 155; test: M. smegmatis growth inhibition (MIC)

SMILES	Percent HEK toxicity 6.25 μg/mL [1]	MIC, μM M. smegmatis mc2 155 [2]
N=C(N)NCCC[C@@H](CN[C@H](CN)CCCN)NCCc1cccc2ccccc12	16.3%	50 µM (≈ 20.7 µg/mL)
CCC[C@H](CN[C@@H](CN)CCCCNC)NCc1cccc2ccccc12	11.7%	50 µM (≈ 18.5 µg/mL)
CNCCCC[C@@H](CN[C@H](CN)CCCN)NCCc1cccc2ccccc12	17.0%	50 µM (≈ 20 µg/mL)
CNCCCC[C@@H](CN)NC[C@H](CCCNC(=N)N)NCCc1cccc2ccccc12	10.0%	25 µM (≈ 11 µg/mL)
CCC[C@H](CN[C@H](CN)CCCCNC)NCCc1cccc2ccccc12	16.6%	50 µM (≈ 19.2 µg/mL)
CCC[C@H](CN[C@H](CN)CCCN)NCCc1cccc2ccccc12	8.2%	50 µM (≈ 17.8 µg/mL)
CNCCCC[C@H](CN)NC[C@H](CCCCNC)NCCc1cccc2ccccc12	5.2%	25 µM (≈ 10.7 µg/mL)
CNCCCC[C@H](CN)NC[C@H](CCCNC(=N)N)NCc1cccc2ccccc12	18.7%	25 µM (≈ 10.7 µg/mL)
CNCCCC[C@@H](CN)NC[C@H](CCCCNC)NCCc1cccc2ccccc12	20.9%	50 µM (≈ 21.4 µg/mL)

In brackets after ≈: the same amount, converted by molar mass.
